In data set [1] the target is cloned human muscarinic receptor subtype M1 (Homo sapiens, UniProt P11229). As to the kind of experiment: Receptor binding, [3H]NMS, cloned human muscarinic receptor M1. Conditions: for receptor binding affinity pKi, M1: mean ± SD of 3 experiments; for Hill slope, M1: numbers in parentheses.
The target of data set [2] is cloned human muscarinic receptor subtype M3 (Homo sapiens, UniProt P20309). As to the kind of experiment: Receptor binding, [3H]NMS, cloned human muscarinic receptor M3. To be noted: for receptor binding affinity pKi, M3: mean ± SD of 3 experiments; for Hill slope, M3: numbers in parentheses.
The test system of data set [3] is rabbit eyes (pupil size). As to the kind of experiment: In vivo mydriatic studies of zwitterionic isomers in rabbit eyes. The arrangement: AUC^eff0-168 h: unit not given beside the values. Conditions: for Rmax (%): 0.1 mL topical, maximum % change in pupil size.
For data set [4], the system named is cloned human muscarinic receptor subtypes M1-M4. Nature of the data set: Receptor binding at cloned human muscarinic receptors, values stated across subtypes (ranges, M3/M2 selectivity).
The target in data set [5] is cloned human muscarinic receptor subtype M4 (Homo sapiens, UniProt P08173). As to the kind of experiment: Receptor binding, [3H]NMS, cloned human muscarinic receptor M4. To be noted: for receptor binding affinity pKi, M4: mean ± SD of 3 experiments; for Hill slope, M4: numbers in parentheses.
Data set [6] deals with cloned human muscarinic receptor subtype M2 (Homo sapiens, UniProt P08172). As to the kind of experiment: Receptor binding, [3H]NMS, cloned human muscarinic receptor M2. Conditions: for receptor binding affinity pKi, M2: mean ± SD of 3 experiments; for Hill slope, M2: numbers in parentheses.
For data set [7], the system named is guinea pig ileum (M3 muscarinic receptors). Nature of the data set: Guinea pig ileum contraction assay, pA2 against carbachol. Conditions: carbachol as agonist, 4-6 strips, mean ± SD.
Data set [8] addresses muscarinic receptors (mainly M1) of rat brain cortex membranes (Rattus norvegicus, UniProt P08482). As to the kind of experiment: Receptor binding, [3H]QNB, rat cortical membrane preparation. Conditions: Table 8; for Ki: read-out: Ki (nM), Average ± SD, [3H]QNB, rat cortical membranes.
Data set [9] has as its system guinea pig ileum longitudinal muscle strips. Nature of the data set: Guinea pig ileum longitudinal muscle assay, pA2 against acetylcholine (Schild plot). To be noted: tissue samples from four animals.
The test system of data set [10] is guinea pig tracheal rings. Nature of the data set: Guinea pig trachea assay, pA2 against carbachol (Schild plot). Conditions: tissue from four animals.
Data set [11] relates to acetylcholine-induced bronchoconstriction. Nature of the data set: Acetylcholine induced bronchoconstriction in anesthetized guinea pigs. In kind it is in vivo, guinea pig. To be noted: 0.1 mg/kg intratracheally.
Data set [12] in a line: In vitro stability in rat plasma. Conditions: 37° C., pH 7.4.
Data set [13] can be described thus: In vitro stability in rat blood. Conditions: 37° C., pH 7.4.
In data set [14] the test system is rabbit eyes (pupil size). Nature of the data set: Mydriatic effect of soft glycopyrrolates in rabbit eyes. The arrangement: AUC^eff(0-144 h): unit not given beside the values. To be noted: for Rmax (%): 100 μl topical, % change in pupil size at 1 h.
Data set [15] in a line: Elimination after i.v. administration in rats.

Amino acid sequences for entries named in this document (tags omitted). A change or cut given only in a name is not applied to a line headed by its entry.
UniProt P11229: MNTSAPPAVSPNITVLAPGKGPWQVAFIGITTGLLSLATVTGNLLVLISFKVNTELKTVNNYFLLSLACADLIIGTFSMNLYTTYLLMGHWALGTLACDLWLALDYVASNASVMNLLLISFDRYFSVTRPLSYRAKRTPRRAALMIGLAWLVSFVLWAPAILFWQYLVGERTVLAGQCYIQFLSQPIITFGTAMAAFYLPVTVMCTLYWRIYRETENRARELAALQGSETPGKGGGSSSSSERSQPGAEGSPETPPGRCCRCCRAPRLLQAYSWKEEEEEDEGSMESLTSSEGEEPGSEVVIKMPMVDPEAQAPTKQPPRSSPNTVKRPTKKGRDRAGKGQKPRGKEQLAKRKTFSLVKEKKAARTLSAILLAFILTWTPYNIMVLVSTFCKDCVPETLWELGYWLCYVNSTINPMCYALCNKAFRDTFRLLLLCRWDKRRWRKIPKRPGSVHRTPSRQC
UniProt P20309, whole entry, looked up: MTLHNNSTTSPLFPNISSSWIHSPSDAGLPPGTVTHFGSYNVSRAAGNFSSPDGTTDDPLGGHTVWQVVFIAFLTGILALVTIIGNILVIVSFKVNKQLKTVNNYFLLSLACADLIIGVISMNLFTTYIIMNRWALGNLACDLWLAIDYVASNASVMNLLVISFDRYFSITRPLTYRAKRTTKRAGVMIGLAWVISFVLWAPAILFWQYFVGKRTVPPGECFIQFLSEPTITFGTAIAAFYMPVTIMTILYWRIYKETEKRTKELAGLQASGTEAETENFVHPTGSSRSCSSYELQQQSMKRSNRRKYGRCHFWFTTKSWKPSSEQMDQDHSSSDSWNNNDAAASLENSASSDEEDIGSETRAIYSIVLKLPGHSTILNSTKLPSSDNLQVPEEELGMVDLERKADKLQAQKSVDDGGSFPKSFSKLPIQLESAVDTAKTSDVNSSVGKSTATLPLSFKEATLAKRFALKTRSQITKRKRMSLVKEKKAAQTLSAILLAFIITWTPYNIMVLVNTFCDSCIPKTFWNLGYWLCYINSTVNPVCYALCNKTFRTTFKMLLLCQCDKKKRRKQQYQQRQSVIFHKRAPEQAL
UniProt P08173, whole entry, looked up: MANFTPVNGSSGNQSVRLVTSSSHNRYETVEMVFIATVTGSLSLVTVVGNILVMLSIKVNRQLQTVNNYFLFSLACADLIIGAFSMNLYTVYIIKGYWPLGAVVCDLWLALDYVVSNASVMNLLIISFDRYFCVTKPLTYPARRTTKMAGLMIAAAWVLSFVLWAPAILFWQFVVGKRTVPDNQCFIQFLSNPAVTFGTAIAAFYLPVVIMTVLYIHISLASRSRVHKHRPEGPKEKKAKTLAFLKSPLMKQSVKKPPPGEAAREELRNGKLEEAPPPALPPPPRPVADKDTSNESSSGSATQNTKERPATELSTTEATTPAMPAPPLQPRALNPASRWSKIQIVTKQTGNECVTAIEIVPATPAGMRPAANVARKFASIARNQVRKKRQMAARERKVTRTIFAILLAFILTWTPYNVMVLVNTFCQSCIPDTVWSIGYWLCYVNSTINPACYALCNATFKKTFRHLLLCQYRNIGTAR
UniProt P08172, whole entry, looked up: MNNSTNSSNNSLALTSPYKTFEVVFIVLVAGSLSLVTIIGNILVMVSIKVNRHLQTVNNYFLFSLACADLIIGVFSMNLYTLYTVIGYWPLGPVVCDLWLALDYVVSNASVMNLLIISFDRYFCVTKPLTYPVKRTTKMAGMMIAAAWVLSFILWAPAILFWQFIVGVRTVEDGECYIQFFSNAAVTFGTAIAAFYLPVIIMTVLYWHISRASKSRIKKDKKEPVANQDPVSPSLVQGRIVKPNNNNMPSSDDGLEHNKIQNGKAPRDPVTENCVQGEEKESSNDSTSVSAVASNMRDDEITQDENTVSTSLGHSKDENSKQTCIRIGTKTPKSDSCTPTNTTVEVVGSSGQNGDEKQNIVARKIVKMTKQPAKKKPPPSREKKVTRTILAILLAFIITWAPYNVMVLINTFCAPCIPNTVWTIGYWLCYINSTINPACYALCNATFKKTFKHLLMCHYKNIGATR
UniProt P08482: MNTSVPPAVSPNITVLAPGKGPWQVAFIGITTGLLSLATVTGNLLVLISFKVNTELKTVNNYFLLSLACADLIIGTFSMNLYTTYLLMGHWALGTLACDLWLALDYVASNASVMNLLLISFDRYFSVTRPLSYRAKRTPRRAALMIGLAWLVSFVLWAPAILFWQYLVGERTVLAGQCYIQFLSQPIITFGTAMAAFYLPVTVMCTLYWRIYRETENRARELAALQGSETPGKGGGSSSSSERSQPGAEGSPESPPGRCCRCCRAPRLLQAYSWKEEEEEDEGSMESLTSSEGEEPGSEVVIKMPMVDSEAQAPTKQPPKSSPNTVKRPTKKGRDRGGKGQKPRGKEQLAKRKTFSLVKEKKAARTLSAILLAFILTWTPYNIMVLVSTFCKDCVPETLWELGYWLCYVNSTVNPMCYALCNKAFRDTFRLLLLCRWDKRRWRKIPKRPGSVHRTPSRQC

“And” between values parts separate entries of the source, which are not always exact repeats. Equal entries are not always repeated. Some results are limits rather than exact numbers.

One may read the pA2 as a measure of antagonist potency on a negative log scale. In general, Hill slope refers to a measure of the steepness of the concentration-response curve. A word on the Ki: it is the equilibrium dissociation constant of an inhibitor or competing ligand from its target.

For the compound “(2R,1′R,3′S) 3-(2-cyclopentyl-2-phenyl-2-hydroxyacetoxy)-1-(carboxymethyl)-1-methylpyrrolidinium inner salt”, in [1], the “receptor binding affinity pKi, M1” value is listed as 7.98 ± 0.01 and the “Hill slope, M1” value is listed as “(1.02 ± 0.03)”. In data set [2], the “receptor binding affinity pKi, M3” value was determined as 8.04 ± 0.01 and the “Hill slope, M3” value was “(0.96 ± 0.03)”. Besides, in the data set on rabbit eyes (pupil size) [3] (conc. 0.1%), the “AUC^eff0-168 h” value came to 216 ± 29 and the “Rmax (%)” value amounted to 43.90 ± 7.63%. In addition, the “Selectivity M3/M2 (affinity ratio)” value in data set [4] came out at 5.2 ± 0.7 times. Further, in data set [5], the “receptor binding affinity pKi, M4” value was 8.15 ± 0.06 and the “Hill slope, M4” value is “(1.01 ± 0.06)”. In data set [6], the “receptor binding affinity pKi, M2” value is reported as 7.39 ± 0.09 and the “Hill slope, M2” value is “(0.80 ± 0.22)”. In addition, the pA2 in [7] is given as 7.33 ± 0.28.
For the compound `CCCCCCOC(=O)C[N@@+]1(C)CC[C@H](OC(=O)[C@](O)(c2ccccc2)C2CCCC2)C1`, in [8], the Hill slope was −1.19 ± 0.05 and the Ki was found to be 13 nM. Also, the “pA2, Ileum” value in data set [9] is 8.14. For the same compound, in [10], the “pA2, Trachea” value stood at 8.21.
As to `CCCCCCOC(=O)C[N@+]1(C)CC[C@@H](OC(=O)[C@](O)(c2ccccc2)C2CCCC2)C1`, in [8], the Hill slope is given as −1.24 ± 0.04 and the Ki was 15 nM. In [11], the “effect on acetylcholine-induced bronchoconstriction” value is given as “protective effect”.
Regarding `CCOC(=O)C[N+]1(C)CCC(OC(=O)[C@](O)(c2ccccc2)C2CCCC2)C1.[Br-]` (some centres unmarked), in data set [1], the “receptor binding affinity pKi, M1” value came to 8.67 ± 0.16 and the “Hill slope, M1” value is recorded as “(0.86 ± 0.08)”. Moreover, in data set [2], the “receptor binding affinity pKi, M3” value was 8.74 ± 0.02 and the “Hill slope, M3” value is “(1.09 ± 0.15)”. In data set [12], the “half-life t1/2, min” value was 0.567 h and 0.563 ± 0.08 h; the “pseudo-first-order rate constant k × 10^−3, min^−1” value is given as 20.9 ± 3.0 × 10^−3 min^−1. In [13], the “half-life t1/2, min” value was 1.43 h and 1.44 ± 0.02 h; the “pseudo-first-order rate constant k × 10^−3, min^−1” value is 8.0 ± 0.1 × 10^−3 min^−1. Moreover, in data set [4], the “pKi, range over subtypes M1-M4” value is 8.7-8.9 and the “Selectivity M3/M2 (affinity ratio)” value was determined as 1.1 ± 1.1 times. For the same compound, in the data set with rabbit eyes (pupil size) [14] (conc. 0.5%), the “AUC^eff(0-144 h)” value came out at 1170 ± 308 and the “Rmax (%)” value came to 53.96 ± 13.27%. Moreover, in the data set with rabbit eyes (pupil size) [14] (conc. 1%), the “AUC^eff(0-144 h)” value came to 1532 ± 526 and the “Rmax (%)” value is on record as 56.04 ± 11.69%. In addition, the “duration of mydriatic activity” value with rabbit eyes (pupil size) [14] (pharmacodynamically equipotent doses) is listed as less than 48 h. Besides, in data set [5], the “receptor binding affinity pKi, M4” value was found to be 8.85 ± 0.13 and the “Hill slope, M4” value was “(0.89 ± 0.02)”. Further, in data set [6], the “receptor binding affinity pKi, M2” value was 8.84 ± 0.34 and the “Hill slope, M2” value was “(0.92 ± 0.01)”. The pA2 in data set [7] was 8.55±0.16.
In the case of “(2S,1′S,3′R) 3-(2-cyclopentyl-2-phenyl-2-hydroxyacetoxy)-1-(carboxymethyl)-1-methylpyrrolidinium inner salt”, in data set [1], the “receptor binding affinity pKi, M1” value stood at 6.67 ± 0.06 and the “Hill slope, M1” value is “(1.08 ± 0.03)”. Besides, in data set [2], the “receptor binding affinity pKi, M3” value came out at 6.22 ± 0.05 and the “Hill slope, M3” value is on record as “(1.04 ± 0.08)”. Also, in the data set on rabbit eyes (pupil size) [3] (conc. 0.1%), the “AUC^eff0-168 h” value came to 13 ± 15 and the “Rmax (%)” value came to 3.87 ± 4.49%. In the data set with rabbit eyes (pupil size) [3] (conc. 0.4%), the “AUC^eff0-168 h” value is recorded as 37 ± 3 and the “Rmax (%)” value is 14.88 ± 1.19%. In data set [4], the “Selectivity M3/M2 (affinity ratio)” value is given as 0.7 ± 0.0 times. In data set [5], the “receptor binding affinity pKi, M4” value came to 6.47 ± 0.01 and the “Hill slope, M4” value is listed as “(1.30 ± 0.28)”. Besides, in data set [6], the “receptor binding affinity pKi, M2” value is reported as 6.35 ± 0.01 and the “Hill slope, M2” value is on record as “(1.01 ± 0.01)”. The same compound yielded a pA2 in [7] of 5.69 ± 0.13.
`C[N+]1(CC(=O)[O-])CCC(OC(=O)[C@](O)(c2ccccc2)C2CCCC2)C1` (some centres unmarked): the “t1/2 of excretion (unchanged, through urine)” value in [15] was 0.167 to 0.25 h. In data set [1], the “receptor binding affinity pKi, M1” value is reported as 8.11 ± 0.16 and the “Hill slope, M1” value is listed as “(1.12 ± 0.25)”. In data set [2], the “receptor binding affinity pKi, M3” value worked out at 8.12 ± 0.10 and the “Hill slope, M3” value is reported as “(0.80 ± 0.01)”. Besides, in the data set with rabbit eyes (pupil size) [3] (conc. 0.01%), the “AUC^eff0-168 h” value is 73 ± 24 and the “Rmax (%)” value is reported as 31.00 ± 7.14%. Moreover, in the data set on rabbit eyes (pupil size) [3] (conc. 0.1%), the “AUC^eff0-168 h” value is recorded as 182 ± 40 and the “Rmax (%)” value was 50.34 ± 7.92%. In addition, in data set [4], the “pKi, range over subtypes M1-M4” value is given as 7.5-8.2 and the “Selectivity M3/M2 (affinity ratio)” value worked out at 4.4 ± 0.3 times. Also, in [5], the “receptor binding affinity pKi, M4” value came out at 8.23 ± 0.12 and the “Hill slope, M4” value was “(1.02 ± 0.10)”. For the same compound, in [6], the “receptor binding affinity pKi, M2” value is given as 7.48 ± 0.12 and the “Hill slope, M2” value is “(0.95 ± 0.11)”.
Regarding `CCOC(=O)C[N+]1(C)CCC(OC(=O)C(O)(c2ccccc2)C2CCCC2)C1.[Br-]` (racemic), in data set [1], the “receptor binding affinity pKi, M1” value was 7.51 ± 0.17 and the “Hill slope, M1” value was “(0.91 ± 0.09)”. In data set [2], the “receptor binding affinity pKi, M3” value was determined as 7.54 ± 0.15 and the “Hill slope, M3” value is “(1.18 ± 0.08)”. Moreover, in [12], the “half-life t1/2, min” value was 0.733 h and the “pseudo-first-order rate constant k × 10^−3, min^−1” value is listed as 15.8 ± 0.2 × 10^−3 min^−1. Moreover, in data set [13], the “half-life t1/2, min” value was 1.62 h and 1.61 ± 0.0483 h; the “pseudo-first-order rate constant k × 10^−3, min^−1” value was 7.2 ± 0.2 × 10^−3 min^−1. The “Selectivity M3/M2 (affinity ratio)” value in data set [4] is reported as 1.8 ± 0.7 times. Also, in the data set with rabbit eyes (pupil size) [14] (conc. 0.5%), the “AUC^eff(0-144 h)” value stood at 596 ± 274 and the “Rmax (%)” value came to 44.65 ± 13.99%. Further, in the data set with rabbit eyes (pupil size) [14] (conc. 1%), the “AUC^eff(0-144 h)” value was found to be 645 ± 409 and the “Rmax (%)” value is given as 58.33 ± 12.27%. Besides, in data set [5], the “receptor binding affinity pKi, M4” value amounted to 7.94 ± 0.09 and the “Hill slope, M4” value is “(1.18 ± 0.09)”. Besides, in data set [6], the “receptor binding affinity pKi, M2” value is listed as 7.32 ± 0.07 and the “Hill slope, M2” value is on record as “(1.23 ± 0.06)”. Also, the pA2 in data set [7] stood at 7.36 ± 0.34.

The record behind these values is patent publication US20090263341A1, “SOFT ANTICHOLINERGIC ESTERS” (priority 2005, published 2009).
